Tests used:
central α2-adrenoceptors = test: In vivo antagonism of clonidine-induced mydriasis; set-up: species or system rat (Sprague-Dawley); conditions: for Antagonism of Clonidine Induced Mydriasis (ED2X): anesthetized rats, pretreated 5 minutes before i.v. clonidine, dose causing doubling of clonidine ED50, N=4/group
Method: Administration of clonidine to rat produces mydriasis by an α2 -adrenergic mechanism in the central nervous system as reported by Koss et al., Naunyl-Schmiedeberg's Arch. […] Ophthal. […] Antagonism of the mydriatic action of clonidine was used as an in vivo test to examine the ability of the compounds to penetrate the central nervous system and antagonize α2 -adrenoceptors in the rat.
Adult male Sprague-Dawley rats (250-450 g) were anesthetized with chloral hydrate (120-160 mg/kg i.p.), and a femoral vein was cannulated for drug administration. Body temperature was maintained at 37° C.±0.5. The eye was illuminated using a light with green filters to provide added contrast to aid in visualization of the iris. Pupil diameter was measured using a dissecting microscope containing an ocular micrometer with a resolution of 0.1 mm.
Five minutes was allowed to elapse between successive doses of clonidine, and pupil diameter was determined immediately prior to the injection of the next dose of clonidine. The dose of clonidine required to cause 50% of the maximum increase in diameter of the pupil was determined for each rat, using logarithmic linear regression analysis. […] The potency of antagonists was expressed as ED2X values, i.e. the calculated dose of antagonist required to cause a doubling in the ED50 value for clonidine.

[1] = molecular target: T1, peripheral α2-adrenoceptors (Rattus norvegicus, UniProt P22909); test: In vitro field-stimulated rat vas deferens test: antagonism of clonidine (Schild analysis, pA2); type: cell-based
T1 construct: isolated, field-stimulated rat vas deferens is utilized as an in vitro model; from tissue; host or cells: rat vas deferens (isolated, field-stimulated)
T1 sequence (P22909 1-465): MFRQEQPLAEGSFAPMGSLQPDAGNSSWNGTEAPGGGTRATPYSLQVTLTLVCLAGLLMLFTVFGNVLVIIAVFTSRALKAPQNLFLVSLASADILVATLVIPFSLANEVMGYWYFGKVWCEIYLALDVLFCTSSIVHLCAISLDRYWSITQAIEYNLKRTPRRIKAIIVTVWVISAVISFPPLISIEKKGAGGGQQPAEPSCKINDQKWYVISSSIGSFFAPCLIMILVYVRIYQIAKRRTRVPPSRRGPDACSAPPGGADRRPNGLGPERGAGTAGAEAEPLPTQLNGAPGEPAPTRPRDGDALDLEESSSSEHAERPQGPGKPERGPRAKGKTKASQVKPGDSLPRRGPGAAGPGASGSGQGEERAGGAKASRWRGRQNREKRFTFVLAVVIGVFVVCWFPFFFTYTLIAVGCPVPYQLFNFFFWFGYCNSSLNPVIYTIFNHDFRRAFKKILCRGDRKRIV
Description: In the test, isolated, field-stimulated rat vas deferens is utilized as an in vitro model to determine the potency and selectivity of compounds toward the various α-adrenoceptor subtypes. Selective α2 -adrenoceptor agonists such as clonidine reduce the magnitude of neurogenic contractions in the peripheral smooth muscle by reducing the stimulated release of norepinephine through the activation of presynaptic α2 -adrenoceptors on the noradrenergic nerve terminals.
The vas deferens from rats weighing 250-350 grams were freed of connective and fatty tissue and suspended between two platinum electrodes in an organ bath under 0.5 gram tension. The organ bath contained Tyrode's solution which was bubbled with 5% CO2 and 95% O2 and stimulated with square wave pulses at 0.1 Hz, 0.3 msec in duration and supramaximal voltage (30-50 V). Contractile responses were recorded. α2 -Agonist drug (clonidine) was added cumulatively to the bath and EC50 values determined by regression analysis. […] Computation of the pA2 value was performed using the formula: pA2 =pAx +log (x-1), where pAx is the negative logarithm of the molar concentration of antagonist and x is the dose ratio of EC50 values for the agonist before and after addition of the antagonist.

[2] = molecular target: T1, peripheral α2-adrenoceptors; test: Peripheral versus central α2-adrenoceptor selectivity, vas deferens compared with mydriasis data; conditions: relative to yohimbine

Row | Kb ([1]; isolated field-stimulated rat vas deferens, agonist clonidine, antagonist at least 20 minutes contact) | higher affinity for α2-adrenoceptors than yohimbine ([1]; vas deferens data, relative to yohimbine) | more selective for the periphery than yohimbine [2] | SMILES | Antagonism of Clonidine Induced Mydriasis (ED2X) (central α2-adrenoceptors) | less potent in eliciting a response mediated by central α2-adrenoceptors (mydriasis data) (central α2-adrenoceptors; relative to yohimbine)
1 | 3.02 nM | seven | about 900 times | CS(=O)(=O)NCCN1C(=O)NC[C@]12CCN1CCc3c(oc4ccccc34)[C@@H]1C2 [Arylquinolizine Compound A, (2R,12bS)-3'-(2-methanesulfonamidoethyl)-spiro-[1,3,4,6,7,12b-hexahydrobenzo[b]furo[2,3-a]quinolizin]-2,4'-imidazolidin-2'-one] | 18.0 mg/kg i.v. | 132 fold
2 |  |  |  | COC(=O)[C@@H]1[C@H]2C[C@H]3c4[nH]c5ccccc5c4CCN3C[C@@H]2CC[C@@H]1O [Yohimbine, reference compound] | 0.136 mg/kg i.v. | 

From patent publication US4916223A, “Substituted hexahydroarylquinolizines” (Merck & Co., Inc., priority 1989, dated 1990)
